Earlier results on one molecule are cited in publication PMC11413788, “The heterobivalent (SSTR2/albumin) radioligand [^67Cu]Cu-NODAGA-cLAB4-TATE enables efficient somatostatin receptor radionuclide theranostics” (Theranostics, 2024).

The data set concerns the target SSTR2. Also noted: method as in PMID 25060207. The conditions noted are these: membrane preparations of gene-modified human HTC116-SSTR2+ cells; cited from earlier work.

In the case of `C[C@@H](O)[C@H](NC(=O)[C@@H]1CSSC[C@H](NC(=O)[C@@H](Cc2ccccc2)NC(=O)CCC(C(=O)O)N2CCN(CC(=O)O)CCN(CC(=O)O)CC2)C(=O)N[C@@H](Cc2ccc(O)cc2)C(=O)N[C@H](Cc2c[nH]c3ccccc23)C(=O)N[C@@H](CCCCN)C(=O)N[C@@H]([C@@H](C)O)C(=O)N1)C(=O)O` (stereo partly shown) [[^64Cu]Cu‑NODAGA-TATE, metal not drawn], the Kd – broadly, a measure of binding affinity in units of concentration – was 500 pM.
